scFv variants of Ab-14 (heavy chain) against a SARS-CoV-2 spike peptide

The measurements come from Li et al. 2023 (doi:10.1038/s41467-023-39022-2) through the FLAb antibody collection.

All variants were tested on one target, the spike HR2 peptide PDVDLGDISGINAS (SARS-CoV-2).

Parent: Ab-14, a human scFv built as VH, a 15-residue (Gly4Ser)3 linker, VL. Only the CDRs of the heavy chain vary.
VH: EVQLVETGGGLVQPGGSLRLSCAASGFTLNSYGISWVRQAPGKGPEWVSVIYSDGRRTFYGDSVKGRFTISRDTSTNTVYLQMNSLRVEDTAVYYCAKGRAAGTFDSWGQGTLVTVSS
VL: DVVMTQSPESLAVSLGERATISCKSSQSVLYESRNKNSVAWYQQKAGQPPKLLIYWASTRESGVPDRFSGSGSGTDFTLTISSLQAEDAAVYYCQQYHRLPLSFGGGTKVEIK

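The parent was found by panning a naive human phage display library on the peptide. This is the validation round: designs drawn from the data on random variants, tested in the same kind of assay. Several design methods are mixed in this list. The assay is AlphaSeq: two haploid yeast populations carry antibody and antigen on their surface. Binding brings cells together so that they mate, and sequencing counts the barcode pairs among the diploids. The ratio of observed to expected reads was calibrated, replicate by replicate, on BCL2-family standards whose Kd was known from biolayer interferometry. The assay was run in six technical replicates.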

Variants are written as CDR1, CDR2 and CDR3 of the heavy chain (limits as in the source). Parent: GFTLNSYGIS, VIYSDGRRTFYGDSVK, GRAAGTFDS. Values are apparent Kd, the geometric mean of the replicates that gave a signal; lower means stronger binding. Where no diploid with the target was found in any replicate, the entry reads "no signal": below detection, most likely a poor binder, though not proof of it. Nonspecific signal, from three strains lacking the peptide, appeared in 1% of pairings of all heavy chain designs, centred on 120 nM (5% of these signals below 7.0 nM); values are not corrected for it.

CDR-H1 | CDR-H2 | CDR-H3 | Kd (apparent) | detected
GFDLNSYGIS | VIYSDGRRTFYIDAVK | GQAAGTFDS | 18 nM | 6/6
GFGLDEYGIS | VIYADGQRTFYADSVK | GENAGTFDM | 770 pM | 6/6
GFNLNEYGIS | VIYSDGRRTFYGDSVK | GRQAGTFDS | 1.1 nM | 6/6
GFTLNSYGIS | VIYADGMRTFYGDSVK | TRAPGTFDS | no signal | 0/6
GFDLNEYGIS | VIYADGRRTFYSDSVK | GTVAGTFDT | 490 pM | 6/6
GFNLNMYGIS | VIYSDGRRTFYGDSVK | IRAAGLFDS | no signal | 0/6
GFDLNEYGIS | VIYADGKRTAYADSVK | GNVAGTFDV | 360 pM | 6/6
GFDLNEYGIS | VIYADGMRTVYADSVK | GQNAGTFDL | 430 pM | 6/6
GFDLQDYGIS | VIYADGVRTQYVNNVK | GKWGATLSV | no signal | 0/6
GFDLNEYGIS | VIYSDGRRTFYTDSVK | GRFAGTFDS | 11 nM | 6/6
GFSLNSYGIS | VIYSDGRRTFYGDQVK | GKTAGTFDS | no signal | 0/6
GKSLDEYGIS | VIYADGLRSVYANSVK | GQFDDTLDL | 250 nM | 1/6
GFDLNEYGIS | VIYADGMRTAYSDSVK | GNVAGTFVL | 390 pM | 6/6
GFDLNEYGIS | VIYADGVRTAYADSVK | GEVAGTFDQ | 440 pM | 6/6
GFQLNEYGIS | VIYADGKRSEYQDSVK | GGINSSFSL | no signal | 0/6
GFDLNEYGIS | VIYADGRRTAYLDSVK | GEIAGTFDS | 340 pM | 6/6
GETLNEYGIS | VIYSDGRRTFYGDSVK | GRAAVTFDV | no signal | 0/6
GFTLNSYGIS | VVYSDGSRTFYSDSVK | GRAGGTFDS | no signal | 0/6
GFTLNSFGIS | VIYSDGRRTFYRDSVK | GRAAGTFDS | no signal | 0/6
GFDLNSYGIS | VIYSDGRRTFYGDSVK | GRAAGHFNS | 9.9 nM | 6/6
GFDINEYGVS | VIYADGMRSYYAGKVK | GSEGALFDV | no signal | 0/6
GFDINEYGIS | VIYADGRRTAYADSVK | GEIAGTFDS | 300 pM | 6/6
GFTLESYGIS | VIYSDGRRTFYQDSVK | GQGAGTFDS | no signal | 0/6
GFTLNDYGIS | VIYSDGRRTFYSDSVK | GDAAGTFDS | 2.2 nM | 6/6
GFDLNEYGIS | VIYADGRRTFYADSVK | GNAAGTFDI | 430 pM | 6/6
GFELNSYGIS | VIYSDGRRTFYGDSVK | GVEAGTFDT | 570 pM | 6/6
GFDLNSYGIS | VIYSDGRRTFYIDSVK | GQAAGTFDS | no signal | 0/6
GFDLNEYGIS | VIYADGVRTAYADSVK | GNHAGTFDV | 500 pM | 6/6

Further variants, results first:

Kd (apparent) | detected | CDR-H1 | CDR-H2 | CDR-H3
9.6 nM | 6/6 | GFTLNSYGIS | VIYSDGRRTFYADSVK | GQAAGTFDK
3.0 nM | 3/6 | GFQLNEYGIS | VIYSDGRRTFYIDSVK | GRAAGTFDS
15 nM | 8/12 | GFTLNSYGIS | VIYSDGRRTFYSDSVK | GRWAGTFDS
460 pM | 6/6 | GFNLDEYGIS | VIYADGRRTFYADSVK | GQVAGTFLT
13 nM | 6/6 | GFTLNEYGIS | VIYSDGRRTFYSDSVK | GRAAGTFSS
470 pM | 6/6 | GFDLEEYGIS | VIYADGRRTFYTDSVK | GENAGTFDI
710 pM | 6/6 | GFDLNEYGIS | VIYADGKRTYYSDSVK | GNVAGTFDV
1.3 nM | 6/6 | GFDLNEYGIS | VIYADGRRTAYLDSVK | GETAGTFDS
10 nM | 4/6 | GFDLNEYGIS | VIYADGRRTFYTDQVK | GQNAGTFDM
no signal | 0/6 | GFTLNSYGIS | VIYSDGRRTFYGDSVK | GFNAGQFDS
no signal | 0/6 | GFTLQSYGIS | VIYSDGRRTFYGDSVE | GRAQGTFDC
79 nM | 6/6 | GFSLNNYGIS | VIYSDGKRTFYGDSVK | GRQAGTFDS
670 pM | 12/12 | GFTLNSYGIS | VIYSDGKRTFYSDSVK | GREAGTFDS
1.0 nM | 6/6 | GFDLNSYGIS | VIYSDGRRTFYGDSVK | GQLAGTFDS
120 nM | 4/6 | GFDLNDYGIS | VIYSDGRRTAYGDEVK | GRAAGTFDS
no signal | 0/6 | GFDLNEYGIS | VIYADGRRTAYADSVK | GGNAGFFDS
180 pM | 6/6 | GFDLNEYGIS | VIYADGMRKAYSDSVK | GNVAGTFDL
500 pM | 6/6 | GFDLNEYGIS | VIYADGRRTAYIDSVK | GEIAGTFDA
2.3 nM | 6/6 | GFDLNEYGIS | VIYADGKRTFYSDSVK | GNVGGTFDS
no signal | 0/6 | GFTLESYGIG | VIYSDGRRTFYGDSVK | GFAAGTFDS
no signal | 0/6 | GFELNTYGIS | VIYSDGRRTFYGDSVK | GRTAGTFDS
1.4 nM | 6/6 | GFDLEEYGIS | VIYADGKRTAYADSVK | GENAGTFDV
1.6 nM | 6/6 | GFDLNSYGIS | VIYSDGRRTFYVDSVK | GQAAGTFDT
220 nM | 1/6 | GFDLGEYGIS | VIYADGSRSAYAKNVK | GGSVYKDDV
no signal | 0/6 | GFWLNEYGIS | VIYADGRRTFYGDSVK | GRAAGTFIS
500 pM | 6/6 | GFSLNEYGIS | VIYSDGRRTVYGDSVK | GRAAGTFDS
87 nM | 1/6 | GFDLQEYGIS | VIFADGLRSAYSDKVK | GQINGYFVV
20 nM | 6/6 | GFTLNDYGIS | VIYSDGTRTFYSDSVK | GRAAGTFDS
430 pM | 6/6 | GFDLDEYGIS | VIYADGRRTFYIDSVK | GQNAGTFDQ

The first 8 variants above that were never detected:

CDR-H1 | CDR-H2 | CDR-H3 | Kd (apparent) | detected
GFTLNSYGIS | VIYADGMRTFYGDSVK | TRAPGTFDS | no signal | 0/6
GFNLNMYGIS | VIYSDGRRTFYGDSVK | IRAAGLFDS | no signal | 0/6
GFDLQDYGIS | VIYADGVRTQYVNNVK | GKWGATLSV | no signal | 0/6
GFSLNSYGIS | VIYSDGRRTFYGDQVK | GKTAGTFDS | no signal | 0/6
GFQLNEYGIS | VIYADGKRSEYQDSVK | GGINSSFSL | no signal | 0/6
GETLNEYGIS | VIYSDGRRTFYGDSVK | GRAAVTFDV | no signal | 0/6
GFTLNSYGIS | VVYSDGSRTFYSDSVK | GRAGGTFDS | no signal | 0/6
GFTLNSFGIS | VIYSDGRRTFYRDSVK | GRAAGTFDS | no signal | 0/6

The authors' rule: three or more of the six replicates give a measured affinity, fewer mean a poor binder. Where one sequence has several entries in the source, the replicates are pooled. Values of this round are not directly comparable with the first-round values of the same sequences. The parent sequence was in this pool as ten entries: three were never detected, three once, and four in most replicates, with averages from 2.2 nM to 240 nM.